Where two headings read alike, the source gives them in different places.
Test system: HLA-A2.1-having EBV transformed B-cells (221A2.1)
Settings: for Cytotoxic Activity (%) E/T Ratio 1 / Cytotoxic Activity (%) E/T Ratio 3 / Cytotoxic Activity (%) E/T Ratio 10: FluMPA2.1
[1] = Example 1-3, sample 10 μg/ml during CTL induction +, during culture with IL-2 +, peptide addition +
[2] = Example 1-3, sample 10 μg/ml during CTL induction +, during culture with IL-2 +, peptide addition −
[3] = Example 1-5, sample during CTL induction −, during culture with IL-2 + (10 μg/ml), peptide addition +
[4] = Example 1-5, sample during CTL induction −, during culture with IL-2 + (10 μg/ml), peptide addition −

## sulfated D-(+)-glucose [Sulfated Glucose]
[1]
  Cytotoxic Activity (%) E/T Ratio 1: 34.0%
  Cytotoxic Activity (%) E/T Ratio 3: 67.8%
  Cytotoxic Activity (%) E/T Ratio 10: 92.1%
[2]
  Cytotoxic Activity (%) E/T Ratio 1: 14.3%
  Cytotoxic Activity (%) E/T Ratio 3: 27.8%
  Cytotoxic Activity (%) E/T Ratio 10: 21.0%
[3]
  Cytotoxic Activity (%) E/T Ratio 1: 8.1%
  Cytotoxic Activity (%) E/T Ratio 3: 17.8%
  Cytotoxic Activity (%) E/T Ratio 10: 32.5%
[4]
  Cytotoxic Activity (%) E/T Ratio 1: 2.2%
  Cytotoxic Activity (%) E/T Ratio 3: 2.4%
  Cytotoxic Activity (%) E/T Ratio 10: 7.5%
Sample 10 μg/ml only during continuous culture
  cytotoxic activity after continuous culture (in words): maintaining an antigen-specific cytotoxic activity

— US7816134B2, “Method of extensive culture of antigen-specific cytotoxic T cells” (Takara Bio Inc., priority 2000, dated 2010)
